Test results reported in patent US4237139A, “4-(3-(4-Quinolyl)propyl)piperidines, their preparation and their use as medicines” (Pharmindustrie, priority 1976, dated 1980).

Tested on: ventricular arrhythmia caused by aconitine
Assay: Antiarythmic activity, aconitine test in rats
Conditions: LD 50/ED 50

SMILES: C=C[C@H]1CNCC[C@H]1CCCc1ccnc2ccc(OC)cc12 [Example 1, 4(R)-[3-(6-methoxy 4-quinolyl)propyl] 3(R)-vinyl piperidine]
- therapeutic index compared with quinidine and disopyramide, in words: therapeutic index higher than that of quinidine and disopyramide
